Test results taken from DBAASP.

Tests used:
[1] = test system: Escherichia coli K-12; test: ≥ marks a high value that may be exact or a test limit, other limits are often not marked, values filed in µg/mL are converted to µM
[2] = test system: Staphylococcus aureus ATCC 12600; test: as above

SMILES | MIC [1] [µM] | MIC [2] [µM]
CC(C)C[C@H](NC(=O)[C@H](Cc1ccccc1)NC(=O)[C@H](C)NC(=O)CNC(=O)[C@H](Cc1c[nH]c2ccccc12)NC(=O)[C@H](CC(N)=O)NC(=O)[C@@H](N)CC(C)C)C(=O)N[C@@H](CCCCN)C(=O)N[C@@H](Cc1cnc[nH]1)C(=O)N[C@@H](Cc1ccccc1)C(=O)N[C@@H](Cc1ccccc1)C(=O)N[C@@H](CCCCN)C(=O)O [LNWGAFLKHFFK] | 16 (≈ 24.1 µg/mL) | ≥ 64
CC[C@H](C)[C@H](NC(=O)[C@H](C)NC(=O)CNC(=O)[C@H](Cc1c[nH]c2ccccc12)NC(=O)[C@H](CC(N)=O)NC(=O)[C@@H](N)CC(C)C)C(=O)N[C@@H](CCCCN)C(=O)N[C@@H](CCCCN)C(=O)N[C@@H](Cc1cnc[nH]1)C(=O)N[C@H](C(=O)N[C@H](C(=O)N[C@@H](CCCCN)C(=O)O)[C@@H](C)CC)[C@@H](C)CC [LNWGAIKKHIIK] | ≥ 128 | 

In brackets after ≈: the same amount, converted by molar mass.
